# Measured values: US20210353613A1, “TREATMENT OF NEUROLOGICAL DISEASE” (Aclipse One Inc., priority 2018, published 2021)
# System: mouse motor neuron (MN) survival
# Experiment: Co-culture of patient iAstrocytes with mouse Hb9-GFP motor neurons: MN survival
# Type: cell-based
# Settings: FIG. 4; 10uM; 3 days after administration; compared to vehicle (DMSO); sALS, SOD1, C9orf72 iAstrocytes
# Protocol: Induced astrocytes from control or ALS patients were used in a co-culture assay to determine their effect on mouse motor neuron (MN) survival. Mouse embryonic stem cell-derived motor neurons expressing green fluorescence protein (GFP) under the control of the HB9 promoter were sorted and added to iAstrocytes from patients and controls. […] The survival of mouse MNs was monitored on Day 1 and 3 with confocal image acquisition.
# The MN survival on Day 3 was evaluated as a percentage of survived MN cells observed on Day 1.
compound,measurement,value
"Nc1nc2ccc(OC(F)(F)F)cc2s1 [riluzole, reference compound]",mouse Hb9GFP+ motor neuron rescue: percentage of motor neuron survival,increase in percentage of motor neuron survival
